Sfp PPTase inh: blocks B. subtilis Sfp PPTase activity. Potency, µM, usual class: inhibitors. Biochemical Sfp PPTase activity, qHTS. 310,000 tested, 3.5% active;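 note: the enzyme is Sfp with the accession as filed and its product quenches rhodamine fluorescence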
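Fluorescence-quenching assay with 15 nM Sfp, 5 uM rhodamine-CoA and 12.5 uM BHQ-2-labelled ybbR peptide in pH 7.6 Hepes/MgCl2 buffer. Enzyme was pre-incubated with compound for 15 min at room temperature. Rate was taken from the 30-min fluorescence change (525/598 nm).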
G9a inh: blocks human histone lysine methyltransferase G9a. Q96KQ7. G9a H3K9 monomethylation, AlphaScreen, 2 h. 350,000 tested, 8.8% active. Potency, µM (doses to about 102 µM), actives largely listed as inhibitors; note: nearly all actives have a fitted effect of over 75% in size
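Quantitative HTS format: methyltransferase activity on a biotin-tagged H3K9 peptide is measured by AlphaScreen, using a rabbit anti-monomethyl-H3K9 antibody with streptavidin donor and anti-IgG acceptor beads. Final levels are 20 nM enzyme, 500 nM peptide, 20 uM SAM; 2 h RT.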
miR-21 reporter: miR-21 reporter, rising signal; HeLa miR-21 FLuc reporter, luciferase, 48 h; Potency, µM (titrated, usually from 38.3 µM); 340,000 tested, under 10 active; AID 2288; active = well fitted rising curve with a large enough effect; inconclusive = small, poorly fitted or top-dose-only effect; inactive = no such curve, though single readings can be large or run the other way;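 also: miR-21 action dims this reporter so a rising signal means less miR-21 action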
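HeLa cells endogenously expressing miR-21, stably carrying CMV-driven firefly luciferase with a downstream miR-21 binding site, 2000 cells/well. Titrations up to approximately 40 uM, 48 hours; luciferase luminescence read.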
KDM4E inh: JMJD2E (human) inhibition; 230,000 tested, 1.6% active; JMJD2E catalytic domain, FDH-coupled NADH fluorescence (FDH is formaldehyde dehydrogenase); AID 2147; Potency, µM (doses to about 57.1 µM), most hits filed as inhibitors; active = well fitted inhibition curve with a large enough effect, not every such curve was filed as active; inconclusive = small, poorly fitted or top-dose-only effect, or another doubt; inactive = no such curve, though single readings can be large or run the other way; note: nearly all actives have a fitted effect of over 50% in size
ALDH1A1 inh: ALDH1A1 (human) enzyme inhibition | P00352 | Purified ALDH1A1, NADH fluorescence, propionaldehyde substrate | Potency, µM (doses to about 75.3 µM), usual class: inhibitors | 220,000 tested, 7.3% active; active = well fitted inhibition curve with a large enough effect, not every such curve was filed as active; inconclusive = small, poorly fitted or top-dose-only effect, or another doubt; inactive = no such curve, though single readings can be large or run the other way
Lamin A splicing: modulators of lamin A splicing; HeLa LMNA splicing GFP/RFP minigene ratio, 48 h; Potency, µM (top dose mostly 46.1 µM), usual class: inhibitors; 200,000 tested, 0.01% active; active = well fitted inhibition curve with a large enough effect in the signal ratio, with a control signal flat, not every such curve was filed as active; inconclusive = small, poorly fitted or top-dose-only effect, or effect the other way, or a change in a side signal; the % refers to the signal ratio
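S3 HeLa cells stably expressing lamin A-EGFP splicing minigene plus DsRed2, 600 cells/well, 48 h compound exposure at 37C. Laser-scanning cytometry; analysed as GFP (500-530 nm)/RFP (575-640 nm) total intensity ratio; 0.5% DMSO vehicle.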
Numbers stand for hits; - = inactive; ? = inconclusive; . = no result given; ! = not active in a repeat; [ ] = remark or other dose. Hits are enriched below; roughly 13% of the tested compounds scored in any of these assays. Unless noted, calls come from the whole dose curve; as a rule, active = well fitted curve in the direction sought with a large enough effect; inconclusive = small, poorly fitted or top-dose-only effect, or another doubt; inactive = no such curve, though single readings can be large; an effect the other way counts as inactive or inconclusive.

SMILES	Sfp PPTase inh	G9a inh	miR-21 reporter	KDM4E inh	ALDH1A1 inh	Lamin A splicing
CC(=O)C1=C(O)C(=O)N(c2ccc(S(N)(=O)=O)cc2)C1c1ccc([N+](=O)[O-])cc1 (stereo not drawn)	-	-[0.501 µM]	-	-	-	-[0.0737 µM]
O=C(CSc1nnc(-c2cccnc2)o1)Nc1cccc(Cl)c1	-	44.7µM	-	.	.	.
O=C(CSc1nnc(CNC(=O)c2ccccc2F)o1)Nc1ccc2c(c1)OCCO2	-	-[12.7 µM]	-	-	10µM	-
O=C(CN1CCC(NC(=O)c2ccccc2F)CC1)Nc1ccc2c(c1)OCCO2	-	-[0.501 µM]	-	-	12.6µM	.
O=C(NCc1nnc(SCC(=O)N2CCC(Cc3ccccc3)CC2)o1)c1ccccc1F	-	44.7µM	-	-	8.91µM	?
O=C(CSc1nnc(CNC(=O)c2ccccc2F)o1)Nc1ccc2c(c1)OCO2	-	-	-	-	?	.
O=C(NCc1nnc(SCC(=O)N2CCCC2)o1)c1c(F)cccc1F	-	-	-	.	.	.
O=C(NCCS(=O)(=O)N1CCCCCC1)c1ccc(F)cc1	.	-[0.501 µM]	.	.	.	.
CCOc1ccccc1NC(=O)c1ccc2c(c1)CCN2S(C)(=O)=O	.	-	-	.	.	.
Cn1c2c(c3cc([N+](=O)[O-])ccc31)CCCC2	-	-	-	.	.	.
O=C(CSc1nnc(-c2ccc(O)cc2)o1)Nc1ccc2c(c1)OCCO2	-	-	-	-	-	-
Cc1ccc(NC(=O)CSc2nnc(-c3ccccc3Br)o2)cc1C	-	10µM	-	-	?	-
O=C(CSc1nnc(-c2ccccc2Cl)o1)Nc1ccc2c(c1)OCCO2	-	?	-	-	20µM	-
Cc1ccc(NC(=O)CSc2ncc3ccccn23)cc1C	?	?	-	-	3.16µM	.
CC(=O)Nc1ccc(C(=O)CN2C(=O)CSC2=O)cc1	-	-	-	.	.	.
CCCCN(CCCC)CCNC(=O)c1cn(CC)c2ccc(S(=O)(=O)N3CCc4ccccc4C3)cc2c1=O	-	-	-	.	.	.
O=C(c1cc2ccccc2oc1=O)N(Cc1cccs1)Cc1cccs1	-	-	-	-	11.2µM	-
C#CCCCO/N=C1/C[C@@H](O)[C@@H](O)[C@@H]2[C@@H]3C(=O)N(CCC(=O)OCC)C(=O)[C@H]3CC[C@@H]12	-	.	.	.	-[13.5 µM]	.
O=C(CSc1nc(=O)n(Cc2ccco2)c2c1CCC2)Nc1cccc(F)c1	.	-	-	.	.	-
FC(F)(F)c1ccc(/C=N/n2c(COc3ccccc3)n[nH]c2=S)cc1	?	-[2.33 µM]	-	.	.	.
S=c1[nH]nc(COc2ccccc2)n1/N=C/c1ccccc1Br	-	8.91µM	-	.	.	.
Oc1ccc(Br)cc1/C=N/n1c(COc2ccccc2)n[nH]c1=S	?	28.2µM	-	.	.	.
FC(F)(F)c1ccccc1/C=N/n1c(COc2ccccc2)n[nH]c1=S	50.1µM	20µM	-	.	.	.
CN(C)c1ccc(C(=O)N2CCNC(=O)C2CC(=O)Nc2ccc(F)cc2)cc1 (stereo not drawn)	-	-[12.7 µM]	-	.	.	.
O=C(N/C=N/O)C1=NOC(CNc2ncc(C(F)(F)F)cc2Cl)C1 (stereo not drawn)	-	44.7µM	-	-	-	-
SMILES	Sfp PPTase inh	G9a inh	miR-21 reporter	KDM4E inh	ALDH1A1 inh	Lamin A splicing
CC1(C)CCCN(C(=O)c2ccc3c(c2NCCO)C(=O)c2ccccc2C3=O)C1	-	35.5µM	-	-	?	?
CCN(CCN(C)C)C(=O)c1ccc2c(c1NCCO)C(=O)c1ccccc1C2=O	?	15.8µM	-	?	14.1µM	.
O=C1c2ccccc2C(=O)c2c1ccc(C(=O)N1CCCCC1)c2NCCO	-	-	-	-	-	-
O=C(c1ccccc1)c1c2c(cc3sc4ccccc4[n+]13)-c1cccc3cccc-2c13	?	?	-	15.8µM	-	?
O=C1N=C(C=c2ccc(=Cc3[nH]c(=O)[nH]c3O)cc2)C(=O)N1	-	-[2.33 µM]	-	?	.	.
CCOC(=O)c1ccccc1NC(=O)N1CCN2CCCCC2C1 (stereo not drawn)	.	-	-	.	.	.
COCc1cc(C)nc(Nc2ccc(C)c(C)c2)c1C#N	-	-	-	-	28.2µM	-
COc1cc(C2NC(=O)C(C#N)=C(S)N2c2ccc(C)cc2)ccc1OC(C)C (stereo not drawn)	?	?	-	-	-	-
N#CC1=C(S)N(c2ccccc2)C(c2cccs2)NC1=O (stereo not drawn)	10µM	?	-	-	20µM	-
Cc1ccc(N2C(S)=C(C#N)C(=O)NC2c2cccs2)cc1 (stereo not drawn)	35.5µM	?	-	-	-	?
O=C(Nc1ccc2c(c1)OCCO2)C(=O)NC1CC1	-	-	-	.	.	.
CCOc1ccc(NC(=O)CSc2nc(-c3cccc(Cl)c3)nc3c2Cc2c(CO)cnc(C)c2O3)cc1	.	-	-	.	.	.
COc1ccc(NC(=O)c2oc3ccccc3c2NC(=O)C23CC4CC(CC(C4)C2)C3)c(OC)c1	.	-	-	.	.	.
CCCOc1ccc(Cc2nn[nH]n2)cc1	-	50.1µM	-	-	-	-
O=C(CSc1nnc2scc(-c3ccc(Cl)cc3)n12)Nc1cccc(C(F)(F)F)c1	.	-	-	.	.	.
Cc1nn(CC(=O)Nc2sc3c(c2C#N)CCC(C(C)(C)C)C3)c(C)c1[N+](=O)[O-] (stereo not drawn)	-	44.7µM	-	-	-	-
Cc1nn(CCCC(=O)Nc2sc3c(c2C#N)CCC3)c(C)c1[N+](=O)[O-]	?	31.6µM	-	-	2.51µM	-
COc1ccc(OCC(O)CN2CCN(c3ccc(OC)cc3)CC2)cc1 (stereo not drawn)	-	31.6µM	-	.	.	.
COc1ccc(N2CCN(CC(O)COc3ccc(F)cc3)CC2)cc1 (stereo not drawn)	-	15.8µM	-	.	.	.
OC(COc1ccc(F)cc1)CN1CCN(CC(O)COc2ccc(F)cc2)CC1 (stereo not drawn)	-	-	-	.	.	.
COc1cccc(OC)c1OCC(O)CN1CCN(c2ccccc2F)CC1 (stereo not drawn)	-	-[2.33 µM]	-	.	.	.
C=CCc1ccc(OCC(O)CN2CCN(c3ccccc3)CC2)c(OC)c1 (stereo not drawn)	-	44.7µM	-	.	.	.
C=CCc1ccc(OCC(O)CN2CCCCC2)c(OC)c1 (stereo not drawn)	-	?	-	-	-	-
Cc1ccc(OCC(O)CN2CCN(c3ccc(C)cc3)CC2)cc1 (stereo not drawn)	-	-	-	.	.	.
COc1ccccc1N1CCN(CC(O)COc2cccc3ccccc23)CC1 (stereo not drawn)	-	12.6µM!	-	?	-	?
COc1cc(NC(=O)c2ccccc2F)ccc1NC(=O)c1cc2ccccc2o1	-	-	-	.	.	.
COc1ccc(C2=NN(C(C)=O)C(c3cn(-c4ccccc4)nc3-c3cccs3)C2)cc1 (stereo not drawn)	.	-	-	.	.	.
Cc1cccc(C)c1NC(=O)C[N+](C)(C)C	-	-[12.7 µM]	.	-	-	-
COc1cccc(NC(=O)c2ccc(NC(=O)C3CC(=O)OC34CCCCC4)cc2)c1 (stereo not drawn)	-	-	-	-	-	.

Screens (PubChem BioAssay)
